Each structure is given as a SMILES string. A value given as a limit tells only on which side of the number the result lay.

Protein sequences, listed by entry. Tags and fused reporters are not part of them. Residues count along the entry.
UniProt P10721, 26-976 limits assumed: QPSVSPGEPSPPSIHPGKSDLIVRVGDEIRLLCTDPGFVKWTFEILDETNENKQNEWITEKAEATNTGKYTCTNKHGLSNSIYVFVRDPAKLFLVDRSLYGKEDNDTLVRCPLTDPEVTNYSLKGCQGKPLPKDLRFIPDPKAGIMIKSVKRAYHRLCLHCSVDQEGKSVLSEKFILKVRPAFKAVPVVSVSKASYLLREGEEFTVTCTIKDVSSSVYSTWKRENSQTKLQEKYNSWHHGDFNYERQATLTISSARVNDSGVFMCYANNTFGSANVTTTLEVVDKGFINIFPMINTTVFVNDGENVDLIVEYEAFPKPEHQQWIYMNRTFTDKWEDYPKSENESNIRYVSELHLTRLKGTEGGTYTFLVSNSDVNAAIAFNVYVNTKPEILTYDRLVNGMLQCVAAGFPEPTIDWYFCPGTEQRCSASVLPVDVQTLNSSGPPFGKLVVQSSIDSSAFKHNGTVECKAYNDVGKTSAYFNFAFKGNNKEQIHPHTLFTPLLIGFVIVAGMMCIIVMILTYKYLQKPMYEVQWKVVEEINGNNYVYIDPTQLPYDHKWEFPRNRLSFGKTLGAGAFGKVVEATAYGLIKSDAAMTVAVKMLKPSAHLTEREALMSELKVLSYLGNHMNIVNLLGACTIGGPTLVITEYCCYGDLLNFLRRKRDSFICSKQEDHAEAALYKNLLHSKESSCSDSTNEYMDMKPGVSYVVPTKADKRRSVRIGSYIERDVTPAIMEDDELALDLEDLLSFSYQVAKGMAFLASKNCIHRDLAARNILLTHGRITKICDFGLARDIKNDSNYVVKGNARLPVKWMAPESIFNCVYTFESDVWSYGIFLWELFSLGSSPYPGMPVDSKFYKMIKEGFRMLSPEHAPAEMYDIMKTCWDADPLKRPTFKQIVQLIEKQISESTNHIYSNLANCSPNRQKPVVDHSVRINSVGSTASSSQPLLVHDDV
UniProt P07333, 20-972 limits assumed: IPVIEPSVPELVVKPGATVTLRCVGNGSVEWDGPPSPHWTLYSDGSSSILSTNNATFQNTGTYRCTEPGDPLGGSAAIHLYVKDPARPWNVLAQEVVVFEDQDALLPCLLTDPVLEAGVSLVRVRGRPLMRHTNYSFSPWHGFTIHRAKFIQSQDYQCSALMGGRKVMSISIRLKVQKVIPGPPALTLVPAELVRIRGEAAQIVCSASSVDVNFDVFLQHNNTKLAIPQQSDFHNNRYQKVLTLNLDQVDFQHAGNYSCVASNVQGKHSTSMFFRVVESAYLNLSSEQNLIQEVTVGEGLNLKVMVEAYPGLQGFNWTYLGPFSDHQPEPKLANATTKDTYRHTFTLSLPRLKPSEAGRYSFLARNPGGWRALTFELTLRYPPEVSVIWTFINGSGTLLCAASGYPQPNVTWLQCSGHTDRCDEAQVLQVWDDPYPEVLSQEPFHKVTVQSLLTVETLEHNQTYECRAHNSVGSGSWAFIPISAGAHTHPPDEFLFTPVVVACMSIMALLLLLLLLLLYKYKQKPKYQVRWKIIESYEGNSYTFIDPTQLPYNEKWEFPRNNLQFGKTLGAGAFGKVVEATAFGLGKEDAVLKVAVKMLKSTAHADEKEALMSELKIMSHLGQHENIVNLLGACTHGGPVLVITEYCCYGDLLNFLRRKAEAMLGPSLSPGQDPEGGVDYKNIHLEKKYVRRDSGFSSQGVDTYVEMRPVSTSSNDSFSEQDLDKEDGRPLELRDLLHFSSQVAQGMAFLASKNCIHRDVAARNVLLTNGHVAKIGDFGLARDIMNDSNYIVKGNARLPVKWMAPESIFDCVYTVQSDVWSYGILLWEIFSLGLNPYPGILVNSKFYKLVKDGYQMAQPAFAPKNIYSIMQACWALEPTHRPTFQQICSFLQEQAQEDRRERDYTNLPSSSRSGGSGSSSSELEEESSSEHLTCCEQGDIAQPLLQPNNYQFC
UniProt P16234, 24-1089 limits assumed: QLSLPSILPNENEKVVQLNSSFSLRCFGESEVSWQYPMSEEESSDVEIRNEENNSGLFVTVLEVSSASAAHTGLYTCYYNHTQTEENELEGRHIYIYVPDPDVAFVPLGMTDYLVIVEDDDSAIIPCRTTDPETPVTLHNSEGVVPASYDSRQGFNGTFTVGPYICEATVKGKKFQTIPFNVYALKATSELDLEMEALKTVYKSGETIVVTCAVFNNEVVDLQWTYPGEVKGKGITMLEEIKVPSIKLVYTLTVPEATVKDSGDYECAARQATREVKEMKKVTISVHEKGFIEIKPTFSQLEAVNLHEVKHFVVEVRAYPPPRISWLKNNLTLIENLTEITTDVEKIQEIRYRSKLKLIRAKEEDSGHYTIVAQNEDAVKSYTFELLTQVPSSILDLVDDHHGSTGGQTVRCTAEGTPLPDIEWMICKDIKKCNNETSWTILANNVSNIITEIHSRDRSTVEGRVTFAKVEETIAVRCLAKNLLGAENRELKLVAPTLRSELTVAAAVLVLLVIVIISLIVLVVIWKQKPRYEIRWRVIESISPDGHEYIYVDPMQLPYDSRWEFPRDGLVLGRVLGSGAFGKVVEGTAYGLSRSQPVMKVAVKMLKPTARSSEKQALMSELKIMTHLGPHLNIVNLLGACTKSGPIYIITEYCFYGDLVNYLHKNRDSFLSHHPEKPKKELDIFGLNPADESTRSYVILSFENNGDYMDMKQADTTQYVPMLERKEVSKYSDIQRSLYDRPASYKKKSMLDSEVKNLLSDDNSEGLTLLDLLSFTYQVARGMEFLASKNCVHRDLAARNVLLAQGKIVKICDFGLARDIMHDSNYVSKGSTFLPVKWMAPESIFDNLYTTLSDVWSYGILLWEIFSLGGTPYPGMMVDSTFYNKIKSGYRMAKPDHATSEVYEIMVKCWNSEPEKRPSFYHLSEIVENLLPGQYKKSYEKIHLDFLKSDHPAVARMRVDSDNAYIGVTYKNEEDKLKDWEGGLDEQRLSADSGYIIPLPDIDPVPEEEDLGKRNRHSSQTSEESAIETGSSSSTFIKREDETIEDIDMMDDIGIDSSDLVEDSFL
UniProt Q9UNQ0, whole entry: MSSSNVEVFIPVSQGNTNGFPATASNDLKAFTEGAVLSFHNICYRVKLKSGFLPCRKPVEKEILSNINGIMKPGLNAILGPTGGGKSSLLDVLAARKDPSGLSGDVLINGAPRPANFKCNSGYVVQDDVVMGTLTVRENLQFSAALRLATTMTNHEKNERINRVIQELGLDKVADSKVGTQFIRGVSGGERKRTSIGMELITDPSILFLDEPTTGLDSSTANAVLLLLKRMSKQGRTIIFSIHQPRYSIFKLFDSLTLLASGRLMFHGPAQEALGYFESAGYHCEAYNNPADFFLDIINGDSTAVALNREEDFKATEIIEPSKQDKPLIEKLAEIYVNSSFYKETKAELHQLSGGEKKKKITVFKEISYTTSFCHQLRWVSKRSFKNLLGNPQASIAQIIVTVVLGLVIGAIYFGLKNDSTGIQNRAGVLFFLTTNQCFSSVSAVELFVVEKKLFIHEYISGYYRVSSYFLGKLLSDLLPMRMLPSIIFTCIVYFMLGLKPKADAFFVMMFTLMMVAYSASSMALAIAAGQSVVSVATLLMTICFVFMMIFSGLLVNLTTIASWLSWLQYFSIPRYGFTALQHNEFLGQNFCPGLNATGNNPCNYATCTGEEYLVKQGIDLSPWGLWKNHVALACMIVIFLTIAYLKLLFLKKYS

Data set [1] concerns the target T1, wtKIT (Homo sapiens, UniProt P10721). The data set is described as follows: HTRF biochemical assay, wtKIT (phosphorylation of a peptide substrate). The note with it: read-out: KIT Biochemical IC50 avg, Table 4.
In data set [2] the target is T2, CSF-1R (Homo sapiens, UniProt P07333). The data set is described as follows: HTRF biochemical assay, CSF-1R. The note with it: read-out: CSF-1R Biochemical IC50 avg, Table 4.
Data set [3] deals with T3, PDGFRα (Homo sapiens, UniProt P16234). The data set can be described thus: HTRF biochemical assay, PDGFRα. The note with it: read-out: PDFGRα Biochemical IC50 avg, Table 4. (In general: In TR-FRET formats the signal depends on donor and acceptor labels being close together.)
For data set [4], the system named is KIT phosphorylation in M-07e cells. The data set is described as follows: Cell-based KIT phosphorylation in M-07e cells by pKIT ELISA. The note with it: read-out: M-07e pKIT IC50, SCF stimulation. A general note: An ELISA detects its analyte on a solid surface through an enzyme-linked reagent.
Data set [5] deals with BCRP (BCRP-MDCKII monolayer) (Homo sapiens, UniProt Q9UNQ0). The data set can be described thus: MDCKII-BCRP bidirectional transport assay. The note with it: for MDCK-BCRP: Papp A-B: apical to basolateral.
Data set [6] can be described thus: Kinetic solubility assay. The note with it: 50 mM PB (pH 7.4), shaken 24 hours at RT.
Data set [7] addresses T1, wtKIT. The data set can be described thus: Caliper biochemical assay, wtKIT. The note with it: read-out: KIT Biochemical IC50 avg, Table 6.
Data set [8] deals with T2, CSF-1R. The data set can be described thus: Caliper biochemical assay, CSF-1R. The note with it: read-out: CSF-1R Biochemical IC50, Table 6.
Data set [9] addresses T3, PDGFRα. The data set is described as follows: Caliper biochemical assay, PDGFRα. The note with it: read-out: PDGFRα Biochemical Avg IC50, Table 6.
A short description of data set [10]: Three time point assay for plasma, brain and testes distribution after oral dosing. The note with it: rat, time point 2 h.

With `Cc1ccc(-c2noc([C@@H]3CCN3)n2)cc1NC(=O)c1cnc2cc(C(C)(F)F)ccn12`, the half-inhibitory concentration (IC50) in data set [1] was in the range of 50 to 500 nM; in data set [2] it was 50 to 500 nM; in [3] it was 5000 to 30000 nM.
Take `Cc1ccc(-c2noc([C@H]3C[C@H](OCCF)C3)n2)cc1NC(=O)c1cnc2cc(Cl)ccn12`: the figures for the IC50 in data set [1], in data set [2] and in data set [3] were < 50 nM, 50 to 500 nM and 5000 to 30000 nM, respectively.
`COCc1ccn2c(C(=O)Nc3cc(-c4noc([C@@H]5CCN5)n4)ccc3C)cnc2c1`: the IC50 in [1] was < 50 nM; in data set [2], 50 to 500 nM; in data set [3], 5000 to 30000 nM.
Consider `Cc1ccc(-c2noc([C@@H]3CCCN3C)n2)cc1NC(=O)c1cnn2cc(-c3ccn(C)n3)ccc12`, for which the IC50 in [1] is < 50 nM; in [2] it was < 50 nM; in data set [3], 50 to 500 nM.
With `Cc1nc(-c2ccc(C)c(NC(=O)c3cnc4cc(OCCCN5C(=O)OC[C@H]5CO)ccn34)c2)no1`, the IC50 is < 50 nM in data set [1], 50 to 500 nM in data set [2] and 500 to 5000 nM in [3].
In the case of `Cc1ccc(-c2noc(COC3CC(F)(F)C3(F)F)n2)cc1NC(=O)c1cnc2ccccn12` (stereo not shown), the IC50 in data set [1] was < 50 nM; in data set [2] it was 50 to 500 nM; in data set [3] it was 50 to 500 nM; in [4], < 50 nM. For the same molecule, in data set [5], the MDCK-BCRP: Efflux Ratio came to 1.28. Also, the “MDCK-BCRP: Papp A-B” value in data set [5] is 15.5 10^−6 cm/s. Further, the “Solubility (μM)” value in data set [6] is recorded as “**** (a solubility less than or equal to 2 μM)”.
For `Cc1ccc(-c2noc(C(F)C(C)O)n2)cc1NC(=O)c1cnc2ccccn12` (stereo not shown), the IC50 in data set [1] is 50 to 500 nM; in data set [2], 50 to 500 nM; in data set [3], 50 to 500 nM; in data set [4], < 50 nM. The “Solubility (μM)” value in [6] is reported as “* (a solubility greater than 50 μM)”.
As for `COc1ccn2c(C(=O)Nc3cc(-c4noc([C@H]5C[C@H](OCCF)C5)n4)ccc3C)cnc2c1`, the IC50 was < 50 nM in data set [1], < 50 nM in data set [2] and 500 to 5000 nM in data set [3].
With `Cc1ccc(-c2noc([C@H]3CCN3C)n2)cc1NC(=O)c1cnc2cc(C(C)(F)F)ccn12`, the figures for the IC50 in [1], in data set [2] and in [3] were 50 to 500 nM, 500 to 5000 nM and 5000 to 30000 nM, respectively.
`COc1ccn2c(C(=O)Nc3cc(-c4noc(CC5CC5(F)F)n4)ccc3C)cnc2c1` (racemic): the half-inhibitory concentration (IC50) in data set [1] was < 50 nM; in data set [2], < 50 nM; in data set [3], 50 to 500 nM; in data set [4], < 50 nM. Also, in data set [5], the MDCK-BCRP: Efflux Ratio is 1.64. Also, the “MDCK-BCRP: Papp A-B” value in data set [5] is 2.89 10^−6 cm/s. Also, in data set [6], the “Solubility (μM)” value is on record as “**** (a solubility less than or equal to 2 μM)”.
For `Cc1ccc(-c2noc([C@H]3C[C@@H]3F)n2)cc1NC(=O)c1cnc2cc(COC3COC3)ccn12`, the IC50 in data set [1] was < 50 nM; in data set [2] it was < 50 nM; in [3], 50 to 500 nM; in [4], < 50 nM. Besides, the “Solubility (μM)” value in data set [6] is on record as “**** (a solubility less than or equal to 2 μM)”.
Turning to `Cc1ccc(-c2noc(C3CO3)n2)cc1NC(=O)c1cnc2ccccn12` (stereo not shown), the IC50 is < 50 nM in [1], 50 to 500 nM in data set [2], 500 to 5000 nM in data set [3] and < 50 nM in [4]. The “Solubility (μM)” value in data set [6] was “** (a solubility greater than 10 μM and less than or equal to 50 μM)”.
Regarding `COCc1ccn2c(C(=O)Nc3cc(-c4noc(C[C@@H](C)O)n4)ccc3C)cnc2c1`, the IC50 in data set [1] was in the range of 50 to 500 nM; in data set [2], 50 to 500 nM; in data set [3], 5000 to 30000 nM.
As to `Cc1ccc(-c2noc([C@H]3C[C@@H](OCCF)C3)n2)cc1NC(=O)c1cnc2cc(Cl)ccn12`, the IC50 in data set [1] is < 50 nM; in [2], 50 to 500 nM; in data set [3], 5000 to 30000 nM.
`Cc1ccc(-c2noc(C3CC3C(F)(F)F)n2)cc1NC(=O)c1cnc2ccccn12` (stereo not shown): the IC50 in [1] was < 50 nM; in [2], < 50 nM; in data set [3], 50 to 500 nM; in data set [4], < 50 nM. Moreover, the “Solubility (μM)” value in data set [6] is “**** (a solubility less than or equal to 2 μM)”.
For `COCc1ccn2c(C(=O)Nc3cc(-c4noc([C@H]5CCN5)n4)ccc3C)cnc2c1`, the values for the IC50 in [1], in [2] and in [3] were < 50 nM, 50 to 500 nM and 5000 to 30000 nM, respectively.
With `Cc1ccc(-c2noc([C@H]3C[C@@H]3F)n2)cc1NC(=O)c1cnc2cc(Cl)ccn12`, the half-maximal inhibitory concentration (IC50) in data set [1] was < 50 nM; in data set [2], 50 to 500 nM; in data set [3] it was 50 to 500 nM; in data set [4], < 50 nM. Besides, the “Solubility (μM)” value in [6] is on record as “**** (a solubility less than or equal to 2 μM)”.
Take `Cc1ccc(-c2noc(C3CC3(F)Cl)n2)cc1NC(=O)c1cnc2ccccn12` (stereo not shown): the half-maximal inhibitory concentration (IC50) in data set [1] is < 50 nM; in data set [2], 50 to 500 nM; in [3] it was 500 to 5000 nM; in data set [4] it was < 50 nM. Further, the “Solubility (μM)” value in [6] was “**** (a solubility less than or equal to 2 μM)”.
Take `COc1ccn2c(C(=O)Nc3cc(-c4noc([C@H]5C[C@@H](OCCF)C5)n4)ccc3C)cnc2c1`: the IC50 in data set [1] is < 50 nM; in [2], < 50 nM; in [3], 500 to 5000 nM.
Take `CC[C@@H](O)Cc1nc(-c2ccc(C)c(NC(=O)c3cnc4cc(-c5cncn5C)ccn34)c2)no1`: the results for the IC50 in data set [1], in [2] and in data set [3] were < 50 nM, < 50 nM and 50 to 500 nM, respectively.
Regarding `Cc1ccc(-c2noc(CS(=O)(=O)N(C)C)n2)cc1NC(=O)c1cnc2ccccn12`, the IC50 in data set [1] is 50 to 500 nM. In data set [7], the IC50 is < 50 nM. Further, the IC50 in data set [8] lay within 50 to 500 nM. Also, the IC50 in [9] lay in the range of 50 to 500 nM. In data set [5], the MDCK-BCRP: Efflux Ratio was determined as 25.7 and the “MDCK-BCRP: Papp A-B” value is reported as 1.17 10^−6 cm/s. For the same molecule, in data set [10], the Brain concentration came out at 0 ng/g, the Kp testes/plasma was 0.11, the Plasma concentration turned out to be 746 ng/mL and the Testes concentration was 62.8 ng/g. Besides, the “Solubility (μM)” value in data set [6] is “*** (a solubility greater than 2 μM and less than or equal to 10 μM)”.
Turning to `Cc1ccc(-c2noc([C@H]3CC(F)(F)CN3)n2)cc1NC(=O)c1cnc2cc(COCCO)ccn12`, the IC50 was < 50 nM in [1], 50 to 500 nM in data set [2], 50 to 500 nM in data set [3] and < 50 nM in data set [4]. Moreover, the “Solubility (μM)” value in [6] is recorded as “* (a solubility greater than 50 μM)”.
In the case of `Cc1ccc(-c2noc(CC(C)O)n2)cc1NC(=O)c1cnc2ccccn12` (single isomer, unassigned) [I-257], the IC50 in data set [1] is < 50 nM. In data set [7], the IC50 was < 50 nM. The IC50 in data set [8] was in the range of 50 to 500 nM. The IC50 in [9] was in the range of 500 to 5000 nM. Further, in data set [5], the MDCK-BCRP: Efflux Ratio is 28.5 and the “MDCK-BCRP: Papp A-B” value is 1.26 10^−6 cm/s. In [10], this molecule had a Brain concentration of 0 ng/g, a Kp testes/plasma of 0.21, a Plasma concentration of 127 ng/mL and a Testes concentration of 27.1 ng/g. The “Solubility (μM)” value in data set [6] was “* (a solubility greater than 50 μM)”.
On to `CC[C@H](O)Cc1nc(-c2ccc(C)c(NC(=O)c3cnc4cc(COC)ccn34)c2)no1`, for which the concentration for half-maximal inhibition (IC50) in data set [1] is < 50 nM; in [2], 50 to 500 nM; in data set [3] it was 5000 to 30000 nM.
Regarding `Cc1ccc(-c2noc([C@H]3C[C@@H]3F)n2)cc1NC(=O)c1cnc2cc(C3CNC3)ccn12`, the IC50 in data set [1] was 50 to 500 nM; in data set [2], 500 to 5000 nM; in data set [3], 5000 to 30000 nM; in data set [4], 50 to 500 nM. Besides, the “Solubility (μM)” value in data set [6] is “* (a solubility greater than 50 μM)”.

As a reminder, the IC50 is the midpoint of a concentration-inhibition curve.

For the origin of these results see patent US20240254119A1 (THIRD HARMONIC BIO, INC., priority 2022, published 2024).
